Usually residual activity stands for the signal under treatment as a percentage of the control signal.

Sequences of proteins named here, by UniProt entry; tags and fusion partners are left off. A change or cut given only in a name is not applied to a line headed by its entry.
UniProt Q05513: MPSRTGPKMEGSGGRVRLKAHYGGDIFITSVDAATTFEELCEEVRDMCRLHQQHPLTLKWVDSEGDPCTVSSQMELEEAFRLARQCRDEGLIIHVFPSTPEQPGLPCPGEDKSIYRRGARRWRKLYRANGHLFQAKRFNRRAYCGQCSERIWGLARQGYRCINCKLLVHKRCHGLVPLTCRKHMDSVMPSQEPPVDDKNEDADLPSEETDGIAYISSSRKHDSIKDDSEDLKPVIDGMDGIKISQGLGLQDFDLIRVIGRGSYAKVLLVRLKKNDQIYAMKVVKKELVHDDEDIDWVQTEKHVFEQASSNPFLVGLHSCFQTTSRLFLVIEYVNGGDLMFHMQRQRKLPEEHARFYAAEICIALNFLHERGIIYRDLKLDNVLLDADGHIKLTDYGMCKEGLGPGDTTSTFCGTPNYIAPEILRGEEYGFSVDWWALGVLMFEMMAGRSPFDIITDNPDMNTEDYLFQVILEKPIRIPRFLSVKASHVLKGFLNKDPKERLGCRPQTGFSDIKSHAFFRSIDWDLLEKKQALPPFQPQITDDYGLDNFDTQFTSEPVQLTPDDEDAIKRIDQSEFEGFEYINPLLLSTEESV
UniProt Q13882, whole entry, looked up: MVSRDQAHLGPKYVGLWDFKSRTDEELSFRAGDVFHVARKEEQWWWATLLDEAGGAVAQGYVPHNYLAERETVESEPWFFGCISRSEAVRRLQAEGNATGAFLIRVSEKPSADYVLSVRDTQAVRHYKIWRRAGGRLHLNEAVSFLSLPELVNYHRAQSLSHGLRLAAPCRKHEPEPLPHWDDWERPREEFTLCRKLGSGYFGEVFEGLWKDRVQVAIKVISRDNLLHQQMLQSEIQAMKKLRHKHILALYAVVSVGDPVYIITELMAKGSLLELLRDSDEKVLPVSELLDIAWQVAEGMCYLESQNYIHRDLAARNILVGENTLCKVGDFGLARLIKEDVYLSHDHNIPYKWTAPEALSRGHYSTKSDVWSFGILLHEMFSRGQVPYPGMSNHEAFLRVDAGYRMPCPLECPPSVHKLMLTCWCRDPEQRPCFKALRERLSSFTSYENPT
UniProt P67870, whole entry, looked up: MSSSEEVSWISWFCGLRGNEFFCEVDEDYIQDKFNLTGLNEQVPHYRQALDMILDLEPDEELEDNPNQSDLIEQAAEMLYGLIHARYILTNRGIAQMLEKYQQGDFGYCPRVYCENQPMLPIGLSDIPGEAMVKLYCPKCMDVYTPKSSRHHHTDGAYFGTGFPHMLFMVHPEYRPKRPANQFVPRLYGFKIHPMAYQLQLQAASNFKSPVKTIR
UniProt P68400, whole entry, looked up: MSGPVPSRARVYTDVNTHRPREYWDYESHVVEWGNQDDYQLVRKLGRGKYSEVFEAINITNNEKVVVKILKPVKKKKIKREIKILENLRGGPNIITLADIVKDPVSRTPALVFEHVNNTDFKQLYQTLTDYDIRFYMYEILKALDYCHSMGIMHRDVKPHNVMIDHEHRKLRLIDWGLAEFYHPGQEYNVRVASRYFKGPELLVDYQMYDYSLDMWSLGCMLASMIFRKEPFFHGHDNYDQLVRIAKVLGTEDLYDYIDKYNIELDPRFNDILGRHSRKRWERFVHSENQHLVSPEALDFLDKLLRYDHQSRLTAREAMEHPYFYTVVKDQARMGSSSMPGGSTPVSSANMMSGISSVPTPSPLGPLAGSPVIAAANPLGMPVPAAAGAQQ
UniProt P19784, whole entry, looked up: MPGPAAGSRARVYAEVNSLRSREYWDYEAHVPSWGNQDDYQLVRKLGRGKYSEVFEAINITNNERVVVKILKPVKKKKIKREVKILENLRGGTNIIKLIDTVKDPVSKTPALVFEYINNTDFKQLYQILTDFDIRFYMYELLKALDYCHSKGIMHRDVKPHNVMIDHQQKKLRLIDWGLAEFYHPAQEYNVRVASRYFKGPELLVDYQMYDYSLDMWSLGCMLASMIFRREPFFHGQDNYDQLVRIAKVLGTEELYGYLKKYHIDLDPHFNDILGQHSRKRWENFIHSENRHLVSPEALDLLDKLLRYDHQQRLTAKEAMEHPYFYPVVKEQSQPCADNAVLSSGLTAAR
UniProt P53355: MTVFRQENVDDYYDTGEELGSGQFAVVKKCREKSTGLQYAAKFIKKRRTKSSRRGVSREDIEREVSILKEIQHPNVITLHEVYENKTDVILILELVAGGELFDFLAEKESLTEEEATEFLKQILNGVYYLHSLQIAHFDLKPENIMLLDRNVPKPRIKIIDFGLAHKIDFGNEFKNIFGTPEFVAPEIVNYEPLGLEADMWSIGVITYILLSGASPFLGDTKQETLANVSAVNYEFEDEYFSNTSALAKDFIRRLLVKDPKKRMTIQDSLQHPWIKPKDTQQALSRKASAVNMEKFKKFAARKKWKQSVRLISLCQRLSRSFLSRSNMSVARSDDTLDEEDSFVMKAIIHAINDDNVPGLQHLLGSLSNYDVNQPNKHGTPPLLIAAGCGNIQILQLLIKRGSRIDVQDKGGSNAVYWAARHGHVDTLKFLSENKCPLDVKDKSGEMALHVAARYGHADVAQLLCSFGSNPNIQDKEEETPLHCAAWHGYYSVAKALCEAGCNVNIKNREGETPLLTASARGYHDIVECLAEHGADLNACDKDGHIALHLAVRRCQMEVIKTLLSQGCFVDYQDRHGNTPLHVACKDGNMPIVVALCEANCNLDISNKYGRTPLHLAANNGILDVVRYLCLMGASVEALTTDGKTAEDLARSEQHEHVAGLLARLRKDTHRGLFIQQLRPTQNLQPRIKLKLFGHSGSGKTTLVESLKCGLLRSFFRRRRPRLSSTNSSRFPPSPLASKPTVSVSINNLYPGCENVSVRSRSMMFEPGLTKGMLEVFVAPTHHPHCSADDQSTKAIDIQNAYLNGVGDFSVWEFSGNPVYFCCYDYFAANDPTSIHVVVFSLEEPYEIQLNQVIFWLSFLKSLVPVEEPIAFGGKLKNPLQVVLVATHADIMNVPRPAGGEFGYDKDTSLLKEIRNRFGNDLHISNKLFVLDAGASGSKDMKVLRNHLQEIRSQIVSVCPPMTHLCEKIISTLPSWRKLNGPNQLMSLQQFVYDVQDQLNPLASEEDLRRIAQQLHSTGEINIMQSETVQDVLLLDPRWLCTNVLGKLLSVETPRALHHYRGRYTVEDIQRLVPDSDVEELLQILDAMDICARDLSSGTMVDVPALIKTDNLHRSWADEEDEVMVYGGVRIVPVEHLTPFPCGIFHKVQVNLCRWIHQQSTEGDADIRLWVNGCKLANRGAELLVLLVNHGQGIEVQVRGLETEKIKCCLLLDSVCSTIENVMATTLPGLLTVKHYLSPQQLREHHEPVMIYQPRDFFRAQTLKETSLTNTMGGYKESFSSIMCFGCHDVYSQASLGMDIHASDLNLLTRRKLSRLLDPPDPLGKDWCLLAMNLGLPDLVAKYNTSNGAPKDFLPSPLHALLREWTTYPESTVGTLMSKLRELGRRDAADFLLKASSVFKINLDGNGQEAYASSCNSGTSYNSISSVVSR
UniProt P54764, whole entry: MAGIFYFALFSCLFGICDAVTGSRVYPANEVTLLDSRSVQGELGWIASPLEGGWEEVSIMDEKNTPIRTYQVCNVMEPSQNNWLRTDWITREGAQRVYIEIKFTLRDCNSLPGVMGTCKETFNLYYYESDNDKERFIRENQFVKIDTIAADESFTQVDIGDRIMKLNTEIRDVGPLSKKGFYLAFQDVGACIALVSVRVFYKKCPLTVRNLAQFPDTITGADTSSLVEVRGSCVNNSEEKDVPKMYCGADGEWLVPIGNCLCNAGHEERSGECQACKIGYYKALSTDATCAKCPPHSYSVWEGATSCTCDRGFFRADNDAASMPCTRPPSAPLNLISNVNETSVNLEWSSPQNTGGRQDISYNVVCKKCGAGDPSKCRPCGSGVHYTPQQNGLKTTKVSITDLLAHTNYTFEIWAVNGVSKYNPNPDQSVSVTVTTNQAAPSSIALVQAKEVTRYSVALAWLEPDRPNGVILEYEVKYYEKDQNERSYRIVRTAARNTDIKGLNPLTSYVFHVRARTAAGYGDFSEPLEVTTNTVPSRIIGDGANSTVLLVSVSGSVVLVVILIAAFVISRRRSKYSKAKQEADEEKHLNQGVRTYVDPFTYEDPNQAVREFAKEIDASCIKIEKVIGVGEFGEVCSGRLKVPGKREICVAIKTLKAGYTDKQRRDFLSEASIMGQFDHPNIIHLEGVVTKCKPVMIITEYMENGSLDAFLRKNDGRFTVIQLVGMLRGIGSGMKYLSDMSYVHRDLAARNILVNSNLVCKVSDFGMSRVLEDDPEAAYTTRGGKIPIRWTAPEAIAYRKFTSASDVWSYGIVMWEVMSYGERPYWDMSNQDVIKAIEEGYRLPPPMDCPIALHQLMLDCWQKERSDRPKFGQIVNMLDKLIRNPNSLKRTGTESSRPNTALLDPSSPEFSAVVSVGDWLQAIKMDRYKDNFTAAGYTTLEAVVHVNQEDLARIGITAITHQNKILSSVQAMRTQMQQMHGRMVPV
UniProt P29323: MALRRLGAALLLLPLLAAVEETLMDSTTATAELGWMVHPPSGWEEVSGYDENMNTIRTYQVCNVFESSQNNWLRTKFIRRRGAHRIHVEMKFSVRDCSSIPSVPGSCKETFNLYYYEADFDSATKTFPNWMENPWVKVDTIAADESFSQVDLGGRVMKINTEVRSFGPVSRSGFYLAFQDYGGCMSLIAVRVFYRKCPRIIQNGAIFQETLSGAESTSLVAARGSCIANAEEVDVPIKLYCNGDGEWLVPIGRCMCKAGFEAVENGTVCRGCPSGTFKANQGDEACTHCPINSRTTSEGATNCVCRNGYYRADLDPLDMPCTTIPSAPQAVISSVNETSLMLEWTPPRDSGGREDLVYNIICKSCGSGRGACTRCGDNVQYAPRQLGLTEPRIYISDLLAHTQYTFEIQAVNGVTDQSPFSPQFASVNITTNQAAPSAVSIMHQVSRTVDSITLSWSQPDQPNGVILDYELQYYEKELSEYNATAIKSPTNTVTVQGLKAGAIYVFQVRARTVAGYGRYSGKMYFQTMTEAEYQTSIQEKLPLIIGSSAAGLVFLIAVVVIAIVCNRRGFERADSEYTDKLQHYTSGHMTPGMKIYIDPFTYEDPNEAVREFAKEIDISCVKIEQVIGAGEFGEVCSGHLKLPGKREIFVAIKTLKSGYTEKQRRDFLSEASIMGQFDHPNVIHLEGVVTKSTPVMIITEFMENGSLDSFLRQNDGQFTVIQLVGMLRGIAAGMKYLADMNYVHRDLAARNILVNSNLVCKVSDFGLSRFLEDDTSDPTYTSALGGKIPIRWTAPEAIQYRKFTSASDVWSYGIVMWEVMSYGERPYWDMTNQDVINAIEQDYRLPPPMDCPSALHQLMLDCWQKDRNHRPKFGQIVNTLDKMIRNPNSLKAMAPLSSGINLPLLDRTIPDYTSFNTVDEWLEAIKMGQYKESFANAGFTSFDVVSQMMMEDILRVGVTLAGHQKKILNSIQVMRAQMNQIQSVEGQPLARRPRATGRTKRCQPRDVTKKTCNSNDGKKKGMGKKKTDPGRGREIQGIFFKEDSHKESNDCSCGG
UniProt P07332: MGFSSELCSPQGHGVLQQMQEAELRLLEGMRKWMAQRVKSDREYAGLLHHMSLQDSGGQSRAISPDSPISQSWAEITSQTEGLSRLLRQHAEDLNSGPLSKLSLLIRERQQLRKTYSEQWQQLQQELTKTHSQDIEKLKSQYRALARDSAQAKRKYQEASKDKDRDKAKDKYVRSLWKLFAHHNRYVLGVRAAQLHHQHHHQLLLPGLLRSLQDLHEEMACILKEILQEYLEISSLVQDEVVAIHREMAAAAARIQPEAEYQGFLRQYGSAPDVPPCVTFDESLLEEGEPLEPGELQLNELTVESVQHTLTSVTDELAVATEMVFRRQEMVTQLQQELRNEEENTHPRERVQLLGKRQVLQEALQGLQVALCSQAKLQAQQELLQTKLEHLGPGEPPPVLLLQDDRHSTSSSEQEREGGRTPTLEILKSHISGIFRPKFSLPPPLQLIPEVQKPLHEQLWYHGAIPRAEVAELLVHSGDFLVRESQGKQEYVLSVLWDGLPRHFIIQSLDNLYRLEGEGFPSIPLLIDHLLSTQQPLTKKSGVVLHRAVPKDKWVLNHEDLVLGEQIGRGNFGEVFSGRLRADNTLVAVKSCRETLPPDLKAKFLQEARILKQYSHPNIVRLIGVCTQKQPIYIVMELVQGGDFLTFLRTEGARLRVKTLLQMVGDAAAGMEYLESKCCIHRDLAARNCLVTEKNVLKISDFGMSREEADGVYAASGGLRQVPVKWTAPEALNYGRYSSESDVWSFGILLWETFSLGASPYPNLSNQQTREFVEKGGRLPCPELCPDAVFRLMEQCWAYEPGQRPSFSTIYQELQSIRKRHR

Test [1] has as its target Protein kinase C zeta type (Homo sapiens) (UniProt Q05513). Conditions: at 1 µM.
In test [2] the target is Protein-tyrosine kinase 6 (Homo sapiens) (UniProt Q13882). The note with it: at 1 µM.
The target of test [3] is T1, Casein kinase II (Homo sapiens) (UniProt P67870+P68400+P19784). Conditions: at 1 µM.
The target in test [4] is T1, Casein kinase II (Homo sapiens). Conditions: at 10 µM.
Test [5] deals with Tyrosine-protein kinase CSK (Homo sapiens) (UniProt P41240). Conditions: at 10 µM.
The target in test [6] is Death-associated protein kinase 1 (Homo sapiens) (UniProt P53355). Conditions: at 1 µM.
Test [7] addresses Death-associated protein kinase 2 (Homo sapiens) (UniProt Q9UIK4). Conditions: at 1 µM.
For test [8], the target named is T2, Discoidin domain-containing receptor 2 (Homo sapiens) (UniProt Q16832).
T2 sequence (whole entry): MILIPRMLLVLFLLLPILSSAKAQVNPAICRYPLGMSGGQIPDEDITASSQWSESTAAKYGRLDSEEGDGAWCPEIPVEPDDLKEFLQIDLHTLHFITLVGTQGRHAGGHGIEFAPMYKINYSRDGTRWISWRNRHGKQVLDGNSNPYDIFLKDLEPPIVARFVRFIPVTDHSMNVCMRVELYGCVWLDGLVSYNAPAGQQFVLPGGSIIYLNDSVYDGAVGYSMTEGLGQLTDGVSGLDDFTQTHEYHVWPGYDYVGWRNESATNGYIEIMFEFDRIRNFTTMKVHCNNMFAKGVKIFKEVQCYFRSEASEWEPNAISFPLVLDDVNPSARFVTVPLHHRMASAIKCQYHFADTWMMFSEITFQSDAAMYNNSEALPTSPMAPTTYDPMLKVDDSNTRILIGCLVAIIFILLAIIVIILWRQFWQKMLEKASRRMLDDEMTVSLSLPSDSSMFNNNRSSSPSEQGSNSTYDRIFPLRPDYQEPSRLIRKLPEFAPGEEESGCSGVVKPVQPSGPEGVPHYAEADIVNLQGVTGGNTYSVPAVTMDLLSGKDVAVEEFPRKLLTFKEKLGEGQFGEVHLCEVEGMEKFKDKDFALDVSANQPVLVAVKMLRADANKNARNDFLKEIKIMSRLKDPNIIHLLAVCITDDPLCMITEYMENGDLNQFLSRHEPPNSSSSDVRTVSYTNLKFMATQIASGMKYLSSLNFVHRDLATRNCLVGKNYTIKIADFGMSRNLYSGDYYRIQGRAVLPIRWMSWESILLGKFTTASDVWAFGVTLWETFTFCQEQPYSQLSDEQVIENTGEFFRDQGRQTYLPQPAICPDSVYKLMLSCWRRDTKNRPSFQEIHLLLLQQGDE
Conditions: at 1 µM.

Test [9] addresses T3, Ephrin type-A receptor 3 (Homo sapiens) (UniProt P29320).
T3 sequence (whole entry): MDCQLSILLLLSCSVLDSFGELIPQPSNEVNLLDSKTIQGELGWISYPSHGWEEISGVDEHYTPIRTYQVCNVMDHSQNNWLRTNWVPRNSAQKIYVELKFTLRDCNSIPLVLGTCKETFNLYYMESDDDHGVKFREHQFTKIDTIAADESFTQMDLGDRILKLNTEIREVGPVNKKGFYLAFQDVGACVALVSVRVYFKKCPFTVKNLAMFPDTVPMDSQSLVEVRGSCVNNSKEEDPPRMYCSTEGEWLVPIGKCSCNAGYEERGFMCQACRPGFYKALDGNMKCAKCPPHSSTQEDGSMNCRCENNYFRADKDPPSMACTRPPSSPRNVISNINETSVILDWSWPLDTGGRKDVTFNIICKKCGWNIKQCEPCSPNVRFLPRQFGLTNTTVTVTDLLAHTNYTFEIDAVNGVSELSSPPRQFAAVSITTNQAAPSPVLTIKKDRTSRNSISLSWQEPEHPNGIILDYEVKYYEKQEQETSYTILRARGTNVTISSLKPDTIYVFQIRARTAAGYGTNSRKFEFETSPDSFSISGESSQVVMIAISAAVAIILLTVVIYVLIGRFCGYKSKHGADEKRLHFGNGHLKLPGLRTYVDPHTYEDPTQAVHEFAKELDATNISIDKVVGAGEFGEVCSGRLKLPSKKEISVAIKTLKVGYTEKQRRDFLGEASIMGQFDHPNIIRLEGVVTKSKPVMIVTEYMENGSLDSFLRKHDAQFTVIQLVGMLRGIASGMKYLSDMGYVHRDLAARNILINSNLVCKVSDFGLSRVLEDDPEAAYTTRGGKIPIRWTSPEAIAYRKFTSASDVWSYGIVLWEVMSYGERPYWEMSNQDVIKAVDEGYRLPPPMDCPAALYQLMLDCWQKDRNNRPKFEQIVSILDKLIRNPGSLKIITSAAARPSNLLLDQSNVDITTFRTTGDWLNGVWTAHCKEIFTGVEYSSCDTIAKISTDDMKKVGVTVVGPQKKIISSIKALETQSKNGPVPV
Conditions: at 1 µM.

For test [10], the target named is Ephrin type-A receptor 4 (Homo sapiens) (UniProt P54764). Conditions: at 1 µM.
For test [11], the target named is T4, Ephrin type-A receptor 8 (Homo sapiens) (UniProt P29322).
T4 sequence (whole entry): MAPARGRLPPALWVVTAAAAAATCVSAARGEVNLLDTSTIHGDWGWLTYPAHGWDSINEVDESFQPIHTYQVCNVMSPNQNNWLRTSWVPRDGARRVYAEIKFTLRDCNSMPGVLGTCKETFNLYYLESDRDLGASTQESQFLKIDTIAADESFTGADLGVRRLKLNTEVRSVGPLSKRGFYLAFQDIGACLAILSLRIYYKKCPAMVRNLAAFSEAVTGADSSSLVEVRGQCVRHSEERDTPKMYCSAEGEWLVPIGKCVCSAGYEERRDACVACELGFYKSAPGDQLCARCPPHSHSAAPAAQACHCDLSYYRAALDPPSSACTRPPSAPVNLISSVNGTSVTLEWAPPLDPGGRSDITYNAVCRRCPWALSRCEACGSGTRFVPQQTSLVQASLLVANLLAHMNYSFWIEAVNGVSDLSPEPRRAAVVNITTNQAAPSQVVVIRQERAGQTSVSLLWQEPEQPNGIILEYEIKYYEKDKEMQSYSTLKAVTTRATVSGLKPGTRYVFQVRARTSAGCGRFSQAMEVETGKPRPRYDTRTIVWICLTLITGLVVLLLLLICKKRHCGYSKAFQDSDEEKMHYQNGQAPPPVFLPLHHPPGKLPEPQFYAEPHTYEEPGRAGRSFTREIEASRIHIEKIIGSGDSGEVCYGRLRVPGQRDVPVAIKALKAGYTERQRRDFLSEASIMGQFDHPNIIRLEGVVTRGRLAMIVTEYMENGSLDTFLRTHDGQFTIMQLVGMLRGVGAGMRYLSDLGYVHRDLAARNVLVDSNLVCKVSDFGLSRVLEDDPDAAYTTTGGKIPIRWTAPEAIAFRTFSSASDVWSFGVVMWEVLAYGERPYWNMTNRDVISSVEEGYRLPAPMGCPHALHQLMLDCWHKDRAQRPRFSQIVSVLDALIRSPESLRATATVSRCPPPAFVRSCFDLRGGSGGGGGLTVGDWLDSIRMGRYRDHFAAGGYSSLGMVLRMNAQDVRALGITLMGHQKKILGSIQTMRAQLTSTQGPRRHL
Conditions: at 1 µM.

Test [12] concerns the target T5, Ephrin type-B receptor 1 (Homo sapiens) (UniProt P54762).
T5 sequence (whole entry): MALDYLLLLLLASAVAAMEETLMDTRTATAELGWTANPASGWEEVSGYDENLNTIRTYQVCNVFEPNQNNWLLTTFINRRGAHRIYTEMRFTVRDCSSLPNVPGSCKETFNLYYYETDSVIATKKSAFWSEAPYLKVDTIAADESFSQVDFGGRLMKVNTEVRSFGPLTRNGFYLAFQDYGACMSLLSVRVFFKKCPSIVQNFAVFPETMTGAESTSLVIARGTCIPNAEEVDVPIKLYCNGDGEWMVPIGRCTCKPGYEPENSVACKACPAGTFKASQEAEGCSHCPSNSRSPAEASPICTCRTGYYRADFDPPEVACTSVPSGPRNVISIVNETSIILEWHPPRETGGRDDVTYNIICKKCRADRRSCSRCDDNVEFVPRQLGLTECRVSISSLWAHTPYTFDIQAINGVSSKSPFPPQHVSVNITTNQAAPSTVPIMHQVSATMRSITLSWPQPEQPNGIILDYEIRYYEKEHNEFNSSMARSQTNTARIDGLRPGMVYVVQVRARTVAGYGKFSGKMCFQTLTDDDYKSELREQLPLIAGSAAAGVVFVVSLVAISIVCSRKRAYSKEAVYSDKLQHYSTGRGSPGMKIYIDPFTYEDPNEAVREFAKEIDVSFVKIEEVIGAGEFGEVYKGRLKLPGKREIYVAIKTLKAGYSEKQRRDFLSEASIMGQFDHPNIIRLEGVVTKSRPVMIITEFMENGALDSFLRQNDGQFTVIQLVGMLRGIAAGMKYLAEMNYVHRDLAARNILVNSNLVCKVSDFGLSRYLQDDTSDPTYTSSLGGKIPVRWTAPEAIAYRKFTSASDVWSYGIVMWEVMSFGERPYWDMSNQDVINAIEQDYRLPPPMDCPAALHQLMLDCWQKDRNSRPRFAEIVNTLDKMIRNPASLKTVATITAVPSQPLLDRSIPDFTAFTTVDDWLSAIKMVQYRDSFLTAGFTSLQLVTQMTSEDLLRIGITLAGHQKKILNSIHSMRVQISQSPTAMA
The note with it: at 1 µM.

In test [13] the target is Ephrin type-B receptor 2 (Homo sapiens) (UniProt P29323). Conditions: at 1 µM.
In test [14] the target is Tyrosine-protein kinase Fes/Fps (Homo sapiens) (UniProt P07332). The note with it: at 1 µM.

Structures are written as SMILES. For some assays here: The strong results were mostly taken out for another list; the other results follow. How the calls were made is not given here. The list shows a part of the results, in another mix than the full data.

With `O=C(c1cc2cc(O)ccc2[nH]1)c1cc2cc(O)ccc2[nH]1`, the residual activity in test [1] was inactive: 103%; in test [2] it was 90%; in test [3], 93%; in [4] it was 88%; in [5], 89%; in test [6], 90%. The residual activity in [7] amounted to 88%; in [8], 95%; in test [9] it was 90%; in [10], 96%; in test [11] it was 85%; in test [12], 84%. Further, the residual activity is 88% in [13] and 87% in test [14].

The values above are taken from ChEMBL document CHEMBL2218924, “A broad activity screen in support of a chemogenomic map for kinase signalling research and drug discovery” (Biochem J, 2013).
